# Results reported in paper PMC8231556, “Inhibiting Endothelial Cell Function in Normal and Tumor Angiogenesis Using BMP Type I Receptor Macrocyclic Kinase Inhibitors” (Cancers, 2021).
# Amino acid sequences for entries named in this document (tags omitted). A change or cut given only in a name is not applied to a line headed by its entry. Residues count along the entry.
# UniProt P15056, whole entry: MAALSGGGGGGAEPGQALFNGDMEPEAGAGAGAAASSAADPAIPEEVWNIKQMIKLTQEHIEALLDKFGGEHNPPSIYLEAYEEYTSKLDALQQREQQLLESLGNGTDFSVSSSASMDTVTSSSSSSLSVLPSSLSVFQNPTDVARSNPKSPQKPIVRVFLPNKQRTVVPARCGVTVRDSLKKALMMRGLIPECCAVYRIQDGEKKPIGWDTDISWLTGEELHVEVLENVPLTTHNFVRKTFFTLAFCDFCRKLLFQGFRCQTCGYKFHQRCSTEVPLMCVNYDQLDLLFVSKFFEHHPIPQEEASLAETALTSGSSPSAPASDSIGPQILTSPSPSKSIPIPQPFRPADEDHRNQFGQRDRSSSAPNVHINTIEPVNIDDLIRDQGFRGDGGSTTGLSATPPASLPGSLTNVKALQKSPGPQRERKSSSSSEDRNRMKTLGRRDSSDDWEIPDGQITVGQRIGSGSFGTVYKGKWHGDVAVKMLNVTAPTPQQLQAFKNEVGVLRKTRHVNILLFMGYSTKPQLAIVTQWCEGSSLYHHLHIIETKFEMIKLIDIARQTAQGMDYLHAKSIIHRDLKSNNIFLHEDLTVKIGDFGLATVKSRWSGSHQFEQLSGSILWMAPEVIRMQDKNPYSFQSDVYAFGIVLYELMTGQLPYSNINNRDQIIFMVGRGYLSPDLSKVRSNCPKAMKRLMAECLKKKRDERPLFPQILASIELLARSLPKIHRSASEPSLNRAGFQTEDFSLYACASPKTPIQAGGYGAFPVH
# UniProt P36888, 27-993: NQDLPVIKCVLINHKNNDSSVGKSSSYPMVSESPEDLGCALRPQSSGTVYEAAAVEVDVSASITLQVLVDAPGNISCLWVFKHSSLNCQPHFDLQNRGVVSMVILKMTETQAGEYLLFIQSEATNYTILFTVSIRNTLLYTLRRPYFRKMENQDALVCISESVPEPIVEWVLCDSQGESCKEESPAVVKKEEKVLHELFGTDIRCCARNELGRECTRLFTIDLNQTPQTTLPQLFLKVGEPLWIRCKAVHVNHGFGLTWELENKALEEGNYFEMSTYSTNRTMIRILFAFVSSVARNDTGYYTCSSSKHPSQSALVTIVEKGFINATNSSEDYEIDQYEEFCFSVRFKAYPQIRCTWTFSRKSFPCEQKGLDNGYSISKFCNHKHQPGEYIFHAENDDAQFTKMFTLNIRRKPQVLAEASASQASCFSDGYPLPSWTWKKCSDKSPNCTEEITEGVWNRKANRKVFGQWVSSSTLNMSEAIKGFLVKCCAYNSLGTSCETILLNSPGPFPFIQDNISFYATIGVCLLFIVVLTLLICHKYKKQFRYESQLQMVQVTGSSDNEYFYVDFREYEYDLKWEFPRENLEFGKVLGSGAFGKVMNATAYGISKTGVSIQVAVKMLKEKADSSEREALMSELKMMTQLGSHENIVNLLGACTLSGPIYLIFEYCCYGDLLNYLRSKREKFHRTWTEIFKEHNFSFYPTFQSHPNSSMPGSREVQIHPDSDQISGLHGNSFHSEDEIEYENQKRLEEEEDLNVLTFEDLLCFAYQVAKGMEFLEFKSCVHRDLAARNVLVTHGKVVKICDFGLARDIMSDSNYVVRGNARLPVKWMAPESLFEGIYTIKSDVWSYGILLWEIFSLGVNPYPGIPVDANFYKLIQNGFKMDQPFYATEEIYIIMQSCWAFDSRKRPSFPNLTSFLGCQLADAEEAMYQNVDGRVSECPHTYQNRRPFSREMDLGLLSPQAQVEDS
# UniProt O95819: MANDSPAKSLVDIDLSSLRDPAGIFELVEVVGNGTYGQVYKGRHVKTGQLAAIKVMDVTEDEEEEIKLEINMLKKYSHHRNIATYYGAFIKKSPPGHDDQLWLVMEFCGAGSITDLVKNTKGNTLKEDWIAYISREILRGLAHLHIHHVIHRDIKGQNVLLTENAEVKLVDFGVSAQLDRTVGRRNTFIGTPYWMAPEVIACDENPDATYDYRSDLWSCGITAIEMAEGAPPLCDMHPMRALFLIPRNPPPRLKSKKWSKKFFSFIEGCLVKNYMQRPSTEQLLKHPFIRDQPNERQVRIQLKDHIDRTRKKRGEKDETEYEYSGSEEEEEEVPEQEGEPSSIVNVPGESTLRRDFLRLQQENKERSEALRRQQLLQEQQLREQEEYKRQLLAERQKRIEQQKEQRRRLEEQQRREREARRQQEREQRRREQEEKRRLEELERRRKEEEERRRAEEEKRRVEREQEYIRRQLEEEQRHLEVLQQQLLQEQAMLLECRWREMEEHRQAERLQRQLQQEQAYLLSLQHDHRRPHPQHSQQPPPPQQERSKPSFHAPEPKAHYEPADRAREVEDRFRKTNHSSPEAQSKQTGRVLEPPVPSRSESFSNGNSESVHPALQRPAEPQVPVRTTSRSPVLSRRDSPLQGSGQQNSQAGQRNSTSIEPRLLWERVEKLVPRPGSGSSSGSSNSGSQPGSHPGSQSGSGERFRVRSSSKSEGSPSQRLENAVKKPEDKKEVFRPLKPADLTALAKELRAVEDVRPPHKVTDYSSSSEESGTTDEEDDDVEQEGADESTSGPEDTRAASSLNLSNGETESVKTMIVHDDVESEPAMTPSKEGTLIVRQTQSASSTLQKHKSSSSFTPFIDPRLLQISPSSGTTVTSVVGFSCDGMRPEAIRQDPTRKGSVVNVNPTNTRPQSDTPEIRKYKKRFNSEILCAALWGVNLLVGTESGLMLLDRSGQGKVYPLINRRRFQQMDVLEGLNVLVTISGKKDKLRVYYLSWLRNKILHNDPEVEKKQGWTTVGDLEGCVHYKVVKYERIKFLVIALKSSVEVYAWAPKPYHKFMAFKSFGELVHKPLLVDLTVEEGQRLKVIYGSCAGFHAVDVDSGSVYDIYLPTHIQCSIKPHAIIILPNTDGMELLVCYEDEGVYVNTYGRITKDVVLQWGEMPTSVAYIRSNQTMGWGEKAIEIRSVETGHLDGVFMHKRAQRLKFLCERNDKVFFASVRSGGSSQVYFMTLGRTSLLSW
# UniProt Q9Y4K4: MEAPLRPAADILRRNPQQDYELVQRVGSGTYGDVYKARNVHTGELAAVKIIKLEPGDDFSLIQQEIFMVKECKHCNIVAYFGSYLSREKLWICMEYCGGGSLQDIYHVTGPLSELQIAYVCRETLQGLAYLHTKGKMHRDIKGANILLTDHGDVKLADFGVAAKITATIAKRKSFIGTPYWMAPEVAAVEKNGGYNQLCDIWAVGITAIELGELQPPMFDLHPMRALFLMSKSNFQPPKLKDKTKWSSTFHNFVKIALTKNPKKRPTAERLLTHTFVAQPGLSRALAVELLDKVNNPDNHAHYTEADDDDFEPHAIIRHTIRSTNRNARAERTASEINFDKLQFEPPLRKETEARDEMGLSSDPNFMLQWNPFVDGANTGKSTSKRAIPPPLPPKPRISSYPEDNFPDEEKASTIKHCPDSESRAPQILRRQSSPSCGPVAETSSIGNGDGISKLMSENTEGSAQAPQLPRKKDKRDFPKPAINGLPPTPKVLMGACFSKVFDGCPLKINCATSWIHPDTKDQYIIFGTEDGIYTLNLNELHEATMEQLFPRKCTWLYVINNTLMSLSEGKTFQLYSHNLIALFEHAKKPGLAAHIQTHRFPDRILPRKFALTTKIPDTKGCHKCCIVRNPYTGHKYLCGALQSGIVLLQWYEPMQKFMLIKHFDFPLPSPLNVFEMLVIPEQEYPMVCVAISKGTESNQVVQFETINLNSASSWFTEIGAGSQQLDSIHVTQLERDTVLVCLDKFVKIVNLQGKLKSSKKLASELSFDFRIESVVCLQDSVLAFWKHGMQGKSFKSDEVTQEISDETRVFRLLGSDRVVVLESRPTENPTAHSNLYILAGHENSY
# UniProt Q9H0K1: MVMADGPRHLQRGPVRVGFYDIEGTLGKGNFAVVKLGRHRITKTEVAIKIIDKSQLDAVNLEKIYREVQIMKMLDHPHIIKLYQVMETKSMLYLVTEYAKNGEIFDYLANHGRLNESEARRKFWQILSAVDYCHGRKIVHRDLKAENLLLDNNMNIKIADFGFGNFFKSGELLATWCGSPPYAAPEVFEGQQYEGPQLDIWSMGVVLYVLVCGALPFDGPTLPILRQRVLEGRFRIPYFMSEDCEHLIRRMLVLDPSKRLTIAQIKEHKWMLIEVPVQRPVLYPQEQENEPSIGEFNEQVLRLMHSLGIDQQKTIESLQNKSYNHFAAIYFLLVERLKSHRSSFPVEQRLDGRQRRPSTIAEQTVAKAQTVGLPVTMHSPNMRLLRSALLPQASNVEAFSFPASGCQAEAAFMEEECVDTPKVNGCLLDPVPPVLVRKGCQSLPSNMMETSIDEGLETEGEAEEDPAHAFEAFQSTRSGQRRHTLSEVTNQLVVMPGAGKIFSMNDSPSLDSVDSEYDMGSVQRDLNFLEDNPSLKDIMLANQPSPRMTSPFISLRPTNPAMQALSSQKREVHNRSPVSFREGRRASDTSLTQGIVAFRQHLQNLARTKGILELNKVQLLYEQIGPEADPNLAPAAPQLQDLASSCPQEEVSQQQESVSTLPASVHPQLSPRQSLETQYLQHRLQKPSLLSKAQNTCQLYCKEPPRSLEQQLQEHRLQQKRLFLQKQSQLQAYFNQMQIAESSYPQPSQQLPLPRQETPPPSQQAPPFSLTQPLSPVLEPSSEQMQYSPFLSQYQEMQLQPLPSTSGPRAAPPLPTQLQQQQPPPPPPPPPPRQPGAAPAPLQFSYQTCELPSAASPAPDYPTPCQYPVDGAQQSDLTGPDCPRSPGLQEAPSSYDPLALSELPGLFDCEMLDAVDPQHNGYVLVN
# How the values were obtained:
# Test in all cases: radiometric kinase profiling (33 PanQinase)
# Type in all cases: biochemical
# BRAF = target: T1, BRAF (Homo sapiens, UniProt P15056); settings: read-out: Inhibitory effect (%) BRAF
# T1 construct: purchased Proqinase, Germany
# Procedure: (§1) The kinase inhibition profile of the compounds was determined by testing 96 protein kinases’ activity using a radiometric protein kinase assay (33 PanQinase® Activity Assay, Proqinase, Germany). In brief, 10 µL of non-radioactive ATP solution (in H2O), 25 µL of assay buffer/[γ-33 P]-ATP mixture, 5 µL of 0.1 μM the tested compound in 10% DMSO and 10 µL of enzyme/substrate were mixed in 96-well FlashPlatesTM (Perkin Elmer, Boston, MA, USA). The reaction was conducted at 30 °C for 60 min. To stop the reaction, 50 µL of 2% (v/v) H3PO4 was added into the protein kinase reaction cocktails. After which, with 200 µL 0.9% (w/v) NaCl twice, the incorporation of ^33 Pi (counting of “cpm”) was determined with a microplate scintillation counter (Wallac Microbeta, Boston, MA, USA). All protein kinase assays were performed using a BeckmanCoulter Biomek 2000/SL robotic system (Brea, CA, USA). The residual activity (in %) for each compound was normalized to 100% enzyme activity (untreated control) and background (negative control).
# FLT3 = target: T2, FLT3 (Homo sapiens, UniProt P36888); settings: read-out: Inhibitory effect (%) FLT3
# T2 construct: purchased ProQinase (33PanQinase Activity Assay)
# Procedure: as §1
# MAP4K4 = target: T3, MAP4K4 (Homo sapiens, UniProt O95819); settings: read-out: Inhibitory effect (%) MAP4K4
# T3 construct: purchased ProQinase (33PanQinase Activity Assay)
# Procedure: as §1
# MAP4K5 = target: T4, MAP4K5 (Homo sapiens, UniProt Q9Y4K4); settings: read-out: Inhibitory effect (%) MAP4K5
# T4 construct: purchased ProQinase (33PanQinase Activity Assay)
# Procedure: as §1
# SIK2 = target: T5, SIK2 (Homo sapiens, UniProt Q9H0K1); settings: read-out: Inhibitory effect (%) SIK2
# T5 construct: purchased ProQinase (33PanQinase Activity Assay)
# Procedure: as §1
compound,measurement,setting,value
"c1ccc2c(-c3cnn4cc(-c5ccc(N6CCNCC6)cc5)cnc34)ccnc2c1 [LDN-193189, reference compound]",inhibition at 0.1 µM,BRAF,7.79%
same,inhibition at 0.1 µM,FLT3,3.07%
same,inhibition at 0.1 µM,MAP4K4,-4.01%
same,inhibition at 0.1 µM,MAP4K5,39.7%
same,inhibition at 0.1 µM,SIK2,44%
